# Values quoted from earlier work as cited in US20230104692A1, “DMEU ENHANCER” (priority 2020, published 2023).
# Settings: cited from earlier work
structure (smiles),measurement,value
Cc1cc2c(s1)Nc1ccccc1N=C2N1CCN(C)CC1 [Olanzapine],logP,4.1
